Legend:
Assay in all cases: radiometric filter-binding kinase assay, Kinase HotSpot
Settings in all cases: compound 0.5 µM; ATP 10 µM
MAPKAPK2 (human) = MAPKAPK2 (human) (UniProt P49137)
CAMK1 (human) = CAMK1 (human) (UniProt Q14012)
PRKD3 (human) = PRKD3 (human) (UniProt O94806)
PNCK (human) = PNCK (human) (UniProt Q6P2M8)
DYRK4 (human) = DYRK4 (human) (UniProt Q9NR20)
BRSK1 (human) = BRSK1 (human) (UniProt Q8TDC3)
SGK2 (human) = SGK2 (human) (UniProt Q9HBY8)
KIT (human) = KIT (human) (UniProt P10721)
RPS6KB2 (human) = RPS6KB2 (human) (UniProt Q9UBS0)
RPS6KA3 KD1 KD2 (human) = RPS6KA3 KD1 KD2 (human) (UniProt P51812)
TTK (human) = TTK (human) (UniProt P33981)
CDC42BPB (human) = CDC42BPB (human) (UniProt Q9Y5S2)
SRPK2 (human) = SRPK2 (human) (UniProt P78362)
EPHA2 (human) = EPHA2 (human) (UniProt P29317)
CSNK1D (human) = CSNK1D (human) (UniProt P48730)
MERTK (human) = MERTK (human) (UniProt Q12866)
MINK1 (human) = MINK1 (human) (UniProt Q8N4C8)
MUSK (human) = MUSK (human) (UniProt O15146)
SGK3 (human) = SGK3 (human) (UniProt Q96BR1)
ACVRL1 (human) = ACVRL1 (human) (UniProt P37023)
VRK1 (human) = VRK1 (human) (UniProt Q99986)
SRPK1 (human) = SRPK1 (human) (UniProt Q96SB4)
EPHB2 (human) = EPHB2 (human) (UniProt P29323)
TYRO3 (human) = TYRO3 (human) (UniProt Q06418)
SRC (human) = SRC (human) (UniProt P12931)
MARK4 (human) = MARK4 (human) (UniProt Q96L34)
NLK (human) = NLK (human) (UniProt Q9UBE8)
CAMK4 (human) = CAMK4 (human) (UniProt Q16566)
MAPK9 (human) = MAPK9 (human) (UniProt P45984)
PDGFRA (human) = PDGFRA (human) (UniProt P16234)
EPHB4 (human) = EPHB4 (human) (UniProt P54760)
DCLK2 (human) = DCLK2 (human) (UniProt Q8N568)
GSG2 (human) = GSG2 (human) (UniProt Q8TF76)
RPS6KA1 KD1 KD2 (human) = RPS6KA1 KD1 KD2 (human) (UniProt Q15418)
PAK4 (human) = PAK4 (human) (UniProt O96013)
KDR (human) = KDR (human) (UniProt P35968)
BMX (human) = BMX (human) (UniProt P51813)
PAK3 (human) = PAK3 (human) (UniProt O75914)
TSSK1B (human) = TSSK1B (human) (UniProt Q9BXA7)
STK25 (human) = STK25 (human) (UniProt O00506)
EPHA5 (human) = EPHA5 (human) (UniProt P54756)
EPHA7 (human) = EPHA7 (human) (UniProt Q15375)

Sequences of proteins named here, by UniProt entry; tags and fusion partners are left off. A change or cut given only in a name is not applied to a line headed by its entry.
UniProt Q12866: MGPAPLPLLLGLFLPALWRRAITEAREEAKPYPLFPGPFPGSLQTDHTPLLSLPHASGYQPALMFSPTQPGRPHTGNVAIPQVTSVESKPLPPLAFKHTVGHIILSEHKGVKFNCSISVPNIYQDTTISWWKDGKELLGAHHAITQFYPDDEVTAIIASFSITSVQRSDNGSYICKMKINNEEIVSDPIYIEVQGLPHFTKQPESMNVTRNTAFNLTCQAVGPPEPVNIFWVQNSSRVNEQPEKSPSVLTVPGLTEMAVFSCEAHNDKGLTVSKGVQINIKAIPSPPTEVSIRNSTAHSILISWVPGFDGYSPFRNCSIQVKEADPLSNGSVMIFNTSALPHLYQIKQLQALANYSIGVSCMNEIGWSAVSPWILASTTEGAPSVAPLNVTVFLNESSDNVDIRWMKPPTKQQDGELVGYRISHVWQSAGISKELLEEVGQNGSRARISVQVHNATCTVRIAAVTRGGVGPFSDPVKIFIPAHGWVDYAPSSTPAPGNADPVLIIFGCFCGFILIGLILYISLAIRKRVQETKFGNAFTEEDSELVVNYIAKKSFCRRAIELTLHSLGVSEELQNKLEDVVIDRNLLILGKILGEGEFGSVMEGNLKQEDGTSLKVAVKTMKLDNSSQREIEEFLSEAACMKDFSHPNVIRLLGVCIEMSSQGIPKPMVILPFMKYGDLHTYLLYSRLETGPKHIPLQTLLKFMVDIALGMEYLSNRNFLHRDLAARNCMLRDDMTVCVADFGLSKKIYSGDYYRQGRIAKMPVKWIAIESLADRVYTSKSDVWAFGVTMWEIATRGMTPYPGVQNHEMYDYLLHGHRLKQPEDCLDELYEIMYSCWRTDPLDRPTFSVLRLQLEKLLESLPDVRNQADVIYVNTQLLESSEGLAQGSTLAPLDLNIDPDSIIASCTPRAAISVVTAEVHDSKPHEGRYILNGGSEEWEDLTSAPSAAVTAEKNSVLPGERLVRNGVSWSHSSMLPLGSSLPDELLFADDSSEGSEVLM
UniProt Q8N4C8: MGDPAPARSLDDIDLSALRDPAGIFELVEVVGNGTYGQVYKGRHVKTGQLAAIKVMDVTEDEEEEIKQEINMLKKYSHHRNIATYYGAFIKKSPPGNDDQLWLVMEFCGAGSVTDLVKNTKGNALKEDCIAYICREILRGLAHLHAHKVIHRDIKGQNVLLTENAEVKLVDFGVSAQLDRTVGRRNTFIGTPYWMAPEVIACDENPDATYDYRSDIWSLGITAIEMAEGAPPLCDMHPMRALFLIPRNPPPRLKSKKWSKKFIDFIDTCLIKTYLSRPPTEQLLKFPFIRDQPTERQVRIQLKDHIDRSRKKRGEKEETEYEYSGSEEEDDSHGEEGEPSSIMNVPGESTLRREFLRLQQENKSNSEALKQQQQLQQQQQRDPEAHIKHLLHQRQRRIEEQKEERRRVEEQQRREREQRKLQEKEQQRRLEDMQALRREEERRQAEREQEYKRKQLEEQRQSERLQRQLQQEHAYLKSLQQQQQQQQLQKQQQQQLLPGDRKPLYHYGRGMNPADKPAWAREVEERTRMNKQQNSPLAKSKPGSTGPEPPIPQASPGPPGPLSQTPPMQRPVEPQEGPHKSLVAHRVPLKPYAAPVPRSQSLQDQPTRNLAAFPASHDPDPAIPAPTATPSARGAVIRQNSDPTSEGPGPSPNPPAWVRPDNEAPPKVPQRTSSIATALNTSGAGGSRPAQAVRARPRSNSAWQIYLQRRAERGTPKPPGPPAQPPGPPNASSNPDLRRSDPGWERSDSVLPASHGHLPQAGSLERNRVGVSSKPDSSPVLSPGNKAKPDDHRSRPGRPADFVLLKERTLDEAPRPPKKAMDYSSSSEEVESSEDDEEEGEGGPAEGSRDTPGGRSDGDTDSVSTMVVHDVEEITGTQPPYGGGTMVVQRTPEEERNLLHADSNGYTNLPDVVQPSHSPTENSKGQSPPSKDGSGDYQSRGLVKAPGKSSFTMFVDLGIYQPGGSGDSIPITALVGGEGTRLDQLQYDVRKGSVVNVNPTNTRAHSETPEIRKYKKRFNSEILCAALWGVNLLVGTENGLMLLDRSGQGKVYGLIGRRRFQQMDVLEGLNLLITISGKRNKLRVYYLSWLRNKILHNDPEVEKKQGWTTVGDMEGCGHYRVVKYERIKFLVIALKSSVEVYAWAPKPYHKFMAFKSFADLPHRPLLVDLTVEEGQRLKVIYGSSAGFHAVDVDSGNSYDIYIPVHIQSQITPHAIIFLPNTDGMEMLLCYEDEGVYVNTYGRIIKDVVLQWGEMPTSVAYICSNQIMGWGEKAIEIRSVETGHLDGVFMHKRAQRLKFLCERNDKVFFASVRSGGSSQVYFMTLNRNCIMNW
UniProt Q96BR1: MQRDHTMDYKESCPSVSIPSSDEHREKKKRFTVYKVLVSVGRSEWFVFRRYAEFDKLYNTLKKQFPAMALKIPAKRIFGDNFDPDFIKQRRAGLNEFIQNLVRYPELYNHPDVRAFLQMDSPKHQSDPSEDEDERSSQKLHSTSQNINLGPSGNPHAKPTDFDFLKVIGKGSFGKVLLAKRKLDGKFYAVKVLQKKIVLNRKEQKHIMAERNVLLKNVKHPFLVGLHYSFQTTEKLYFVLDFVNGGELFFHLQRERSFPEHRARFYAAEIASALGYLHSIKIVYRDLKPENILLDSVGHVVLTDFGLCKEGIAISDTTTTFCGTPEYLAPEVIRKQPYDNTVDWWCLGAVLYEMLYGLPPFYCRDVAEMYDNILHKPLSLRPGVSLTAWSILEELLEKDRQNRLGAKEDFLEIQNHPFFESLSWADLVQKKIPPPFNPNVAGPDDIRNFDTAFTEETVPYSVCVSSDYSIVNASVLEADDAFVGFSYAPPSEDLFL
UniProt Q9UBE8: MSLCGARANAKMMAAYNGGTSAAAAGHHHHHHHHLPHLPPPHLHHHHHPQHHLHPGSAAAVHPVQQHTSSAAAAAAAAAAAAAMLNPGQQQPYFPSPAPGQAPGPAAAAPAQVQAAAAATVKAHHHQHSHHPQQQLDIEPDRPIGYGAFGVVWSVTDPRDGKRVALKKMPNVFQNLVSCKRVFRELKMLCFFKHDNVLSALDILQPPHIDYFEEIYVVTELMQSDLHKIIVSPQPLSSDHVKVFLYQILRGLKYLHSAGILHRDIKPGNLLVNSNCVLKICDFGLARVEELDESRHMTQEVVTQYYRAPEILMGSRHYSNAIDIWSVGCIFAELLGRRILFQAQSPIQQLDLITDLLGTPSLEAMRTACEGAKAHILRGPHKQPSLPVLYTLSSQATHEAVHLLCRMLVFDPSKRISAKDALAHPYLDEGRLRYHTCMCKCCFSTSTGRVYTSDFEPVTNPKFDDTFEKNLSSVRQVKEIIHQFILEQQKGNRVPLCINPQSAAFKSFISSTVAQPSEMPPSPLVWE
UniProt P54760: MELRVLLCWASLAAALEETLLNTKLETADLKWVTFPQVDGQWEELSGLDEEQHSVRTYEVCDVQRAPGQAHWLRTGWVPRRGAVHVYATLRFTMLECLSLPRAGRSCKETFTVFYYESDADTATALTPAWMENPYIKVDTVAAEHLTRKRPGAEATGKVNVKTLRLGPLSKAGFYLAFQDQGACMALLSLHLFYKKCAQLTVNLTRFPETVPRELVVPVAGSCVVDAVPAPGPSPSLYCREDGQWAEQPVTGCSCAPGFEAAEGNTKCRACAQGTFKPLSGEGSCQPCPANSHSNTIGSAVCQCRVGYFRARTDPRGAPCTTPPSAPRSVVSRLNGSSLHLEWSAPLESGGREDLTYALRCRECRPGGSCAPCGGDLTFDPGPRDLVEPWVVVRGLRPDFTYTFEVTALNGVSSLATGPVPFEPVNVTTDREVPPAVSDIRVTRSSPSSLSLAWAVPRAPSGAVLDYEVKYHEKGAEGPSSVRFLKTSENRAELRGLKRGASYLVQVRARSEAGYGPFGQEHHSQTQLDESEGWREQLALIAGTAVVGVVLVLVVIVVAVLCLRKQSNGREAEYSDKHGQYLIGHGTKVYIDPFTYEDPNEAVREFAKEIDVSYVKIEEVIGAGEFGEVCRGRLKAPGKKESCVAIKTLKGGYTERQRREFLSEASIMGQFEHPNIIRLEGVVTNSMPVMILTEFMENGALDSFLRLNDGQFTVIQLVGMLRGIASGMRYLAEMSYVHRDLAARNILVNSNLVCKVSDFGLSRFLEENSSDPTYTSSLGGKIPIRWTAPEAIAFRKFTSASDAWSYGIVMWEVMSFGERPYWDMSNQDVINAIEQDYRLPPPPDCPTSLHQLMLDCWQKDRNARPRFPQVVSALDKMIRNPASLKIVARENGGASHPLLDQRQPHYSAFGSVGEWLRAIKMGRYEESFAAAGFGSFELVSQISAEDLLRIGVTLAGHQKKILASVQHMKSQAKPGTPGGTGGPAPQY
UniProt O75914, whole entry, looked up: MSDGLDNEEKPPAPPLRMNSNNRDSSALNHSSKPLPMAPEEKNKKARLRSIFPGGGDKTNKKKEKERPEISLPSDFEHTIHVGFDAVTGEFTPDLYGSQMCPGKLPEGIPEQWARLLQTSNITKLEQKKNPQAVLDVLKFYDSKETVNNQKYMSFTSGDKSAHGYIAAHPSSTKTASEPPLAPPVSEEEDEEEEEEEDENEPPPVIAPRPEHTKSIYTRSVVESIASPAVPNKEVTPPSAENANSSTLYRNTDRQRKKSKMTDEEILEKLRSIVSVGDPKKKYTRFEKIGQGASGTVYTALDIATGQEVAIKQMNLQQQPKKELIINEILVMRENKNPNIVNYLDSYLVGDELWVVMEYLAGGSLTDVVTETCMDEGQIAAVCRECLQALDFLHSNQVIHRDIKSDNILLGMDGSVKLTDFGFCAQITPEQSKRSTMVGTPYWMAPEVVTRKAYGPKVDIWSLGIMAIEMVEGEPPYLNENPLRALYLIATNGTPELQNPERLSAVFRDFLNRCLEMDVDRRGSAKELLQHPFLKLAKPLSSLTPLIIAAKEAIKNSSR
UniProt O00506, whole entry, looked up: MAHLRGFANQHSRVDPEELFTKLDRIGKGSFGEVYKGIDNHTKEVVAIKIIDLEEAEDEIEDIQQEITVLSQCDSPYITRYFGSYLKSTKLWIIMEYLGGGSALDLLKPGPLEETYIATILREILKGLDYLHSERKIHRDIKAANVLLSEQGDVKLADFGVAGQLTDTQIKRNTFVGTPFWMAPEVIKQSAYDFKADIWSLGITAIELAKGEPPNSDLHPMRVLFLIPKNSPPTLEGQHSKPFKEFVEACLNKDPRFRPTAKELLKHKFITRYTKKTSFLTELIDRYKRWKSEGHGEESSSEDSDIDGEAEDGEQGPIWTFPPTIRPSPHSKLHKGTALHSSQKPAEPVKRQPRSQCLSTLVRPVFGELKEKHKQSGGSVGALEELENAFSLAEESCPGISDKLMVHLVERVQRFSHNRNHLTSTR
UniProt P54756, whole entry, looked up: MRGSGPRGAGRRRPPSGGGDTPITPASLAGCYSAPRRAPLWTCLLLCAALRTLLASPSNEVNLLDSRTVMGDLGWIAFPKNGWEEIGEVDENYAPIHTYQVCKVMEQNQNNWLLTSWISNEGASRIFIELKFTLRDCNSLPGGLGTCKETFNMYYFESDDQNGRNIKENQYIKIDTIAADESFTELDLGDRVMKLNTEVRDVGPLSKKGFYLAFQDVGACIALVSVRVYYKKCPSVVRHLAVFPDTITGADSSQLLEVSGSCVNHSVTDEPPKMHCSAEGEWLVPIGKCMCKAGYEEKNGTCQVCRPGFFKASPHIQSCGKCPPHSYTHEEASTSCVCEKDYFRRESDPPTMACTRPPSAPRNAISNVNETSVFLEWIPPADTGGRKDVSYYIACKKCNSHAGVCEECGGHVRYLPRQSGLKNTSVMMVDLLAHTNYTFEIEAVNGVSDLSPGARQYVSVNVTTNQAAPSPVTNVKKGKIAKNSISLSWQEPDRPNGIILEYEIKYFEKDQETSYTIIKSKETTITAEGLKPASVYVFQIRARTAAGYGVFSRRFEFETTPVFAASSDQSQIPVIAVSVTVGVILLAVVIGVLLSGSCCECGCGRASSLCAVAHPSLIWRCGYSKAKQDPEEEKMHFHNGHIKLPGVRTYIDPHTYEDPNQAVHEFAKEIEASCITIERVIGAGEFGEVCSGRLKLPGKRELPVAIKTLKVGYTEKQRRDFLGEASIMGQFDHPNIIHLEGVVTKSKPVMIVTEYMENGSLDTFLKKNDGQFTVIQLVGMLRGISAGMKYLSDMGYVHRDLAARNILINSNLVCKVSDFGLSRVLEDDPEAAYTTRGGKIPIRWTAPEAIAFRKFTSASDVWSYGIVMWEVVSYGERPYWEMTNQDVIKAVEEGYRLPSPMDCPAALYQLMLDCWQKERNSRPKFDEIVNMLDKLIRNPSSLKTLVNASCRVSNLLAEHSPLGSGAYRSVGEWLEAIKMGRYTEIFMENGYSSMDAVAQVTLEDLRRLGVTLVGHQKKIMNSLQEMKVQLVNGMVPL

CO[C@H]1[C@@H](OC)C[C@H](C)[C@@H](OC)C2=CC(=O)C=C(NC(=O)/C(C)=C\C=C/[C@H](OC)[C@@H](OC(N)=O)/C(C)=C\[C@@H]1C)C2=O
residual activity (MAPKAPK2 (human)): 95.9% | residual activity (CAMK1 (human)): 91.3% | residual activity (PRKD3 (human)): 100% | residual activity (PNCK (human)): 98.5% | residual activity (DYRK4 (human)): 94% | residual activity (BRSK1 (human)): 97.9% | residual activity (SGK2 (human)): 96.1% | residual activity (KIT (human)): 106% | residual activity (RPS6KB2 (human)): 105% | residual activity (RPS6KA3 KD1 KD2 (human)): 99% | residual activity (TTK (human)): 118% | residual activity (CDC42BPB (human)): 101% | residual activity (SRPK2 (human)): 95.8% | residual activity (EPHA2 (human)): 107% | residual activity (CSNK1D (human)): 97.2% | residual activity (MERTK (human)): 95.3% | residual activity (MINK1 (human)): 90.8% | residual activity (MUSK (human)): 95.2% | residual activity (SGK3 (human)): 102% | residual activity (ACVRL1 (human)): 101% | residual activity (VRK1 (human)): 91.9% | residual activity (SRPK1 (human)): 88.7% | residual activity (EPHB2 (human)): 86.9% | residual activity (TYRO3 (human)): 96.9% | residual activity (SRC (human)): 103% | residual activity (MARK4 (human)): 93.3% | residual activity (NLK (human)): 102% | residual activity (CAMK4 (human)): 97.7% | residual activity (MAPK9 (human)): 97.1% | residual activity (PDGFRA (human)): 92.1% | residual activity (EPHB4 (human)): 96.9% | residual activity (DCLK2 (human)): 96.9% | residual activity (GSG2 (human)): 91.9% | residual activity (RPS6KA1 KD1 KD2 (human)): 76.8% | residual activity (PAK4 (human)): 109% | residual activity (KDR (human)): 90.3% | residual activity (BMX (human)): 101% | residual activity (PAK3 (human)): 98.3% | residual activity (TSSK1B (human)): 93% | residual activity (STK25 (human)): 99% | residual activity (EPHA5 (human)): 112% | residual activity (EPHA7 (human)): 102%

From the kinase profiling compilation of Christmann-Franck et al. (2016)
